Results taken from PMC9920749, “In Vitro and In Silico Studies of Neolignans from Magnolia grandiflora L. Seeds against Human Cannabinoids and Opioid Receptors” (Molecules, 2023).

Sequences of proteins named here, by UniProt entry; tags and fusion partners are left off.
UniProt P21554, whole entry: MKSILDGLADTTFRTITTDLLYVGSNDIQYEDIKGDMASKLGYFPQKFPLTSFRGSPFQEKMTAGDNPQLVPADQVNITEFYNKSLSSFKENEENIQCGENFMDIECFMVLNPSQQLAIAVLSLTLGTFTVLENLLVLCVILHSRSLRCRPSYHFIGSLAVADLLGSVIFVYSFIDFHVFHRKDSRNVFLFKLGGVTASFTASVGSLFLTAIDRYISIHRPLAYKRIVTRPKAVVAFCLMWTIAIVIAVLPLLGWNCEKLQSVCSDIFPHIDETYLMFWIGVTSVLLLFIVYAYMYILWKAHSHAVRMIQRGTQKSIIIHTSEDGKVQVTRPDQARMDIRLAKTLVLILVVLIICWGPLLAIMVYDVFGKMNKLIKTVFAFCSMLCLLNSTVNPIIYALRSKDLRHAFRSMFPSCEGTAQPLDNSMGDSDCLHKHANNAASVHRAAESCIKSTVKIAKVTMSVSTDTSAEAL

Biological target: T1, CB1R (Homo sapiens, UniProt P21554)
T1 construct: expressed in transfected cells; host or cells: HEK293 (ATCC), stably transfected; membrane preparation
Test: Competitive radioligand binding assay, [3H]-CP55,940, HEK293 membranes
Description: HEK293 cells stably transfected with δ, κ, and μ opioid subtypes were a generous gift from Roth Laboratories (University of North Carolina at Chapel Hill, NC, USA). Opioid cells were maintained as previously described. Membranes were made by washing the cells with cold PBS. The cells were then scraped in cold 50 mM Tris-HCl, pH 7.4 buffer. The solution was centrifuged at 5200× g for 10 min at 4 °C. Next, the supernatant was discarded, and the pellet was washed with more Tris-HCl buffer, homogenized via Sonic Dismembrator (Fisher Scientific, Pittsburgh, PA, USA) and then centrifuged at 24,000× g for 40 min at 4 °C. […] The total membrane protein concentration was measured using a Pierce BCA Protein Assay Kit (Thermo Scientific, Rockford, IL, USA) as per the manufacturer’s protocol.
Cannabinoid and opioid competitive radioligand binding assays were performed as previously described. […] Percent displacements were evaluated for all the cannabinoid and opioid subtypes with a triplicate of a fixed concentration (10 µg/mL for extracts and fractions, 10 μM for purified compounds). […] Radiodetection was measured with 50 µL (cannabinoid) or 25 µL (opioid) MicroScint^TM-20 on a TopCount NXT HTS Microplate Scintillation Counter (PerkinElmer, Waltham, MA, USA). The IC50 and Ki values were calculated by a non-linear curve fit model using GraphPad Prizm 5.0 software (GraphPad Software Inc., San Diego, CA, USA). […]

Compound: C=CCc1ccc(O)c(-c2ccc(OC)c(CC=C)c2)c1 [Compound 1, 4-O-methylhonokiol]
- IC50: 7.69 µM
- Ki: 3.85 ± 0.89 µM
